Measurements reported in patent US5032577A, “Peptidylaminodiols” (Abbott Laboratories, priority 1987, dated 1991).
Read-outs that look alike come from different tables or passages of the source.

Protein sequences, listed by entry. Tags and fused reporters are not part of them. Residues count along the entry.
UniProt P00797, 67-406: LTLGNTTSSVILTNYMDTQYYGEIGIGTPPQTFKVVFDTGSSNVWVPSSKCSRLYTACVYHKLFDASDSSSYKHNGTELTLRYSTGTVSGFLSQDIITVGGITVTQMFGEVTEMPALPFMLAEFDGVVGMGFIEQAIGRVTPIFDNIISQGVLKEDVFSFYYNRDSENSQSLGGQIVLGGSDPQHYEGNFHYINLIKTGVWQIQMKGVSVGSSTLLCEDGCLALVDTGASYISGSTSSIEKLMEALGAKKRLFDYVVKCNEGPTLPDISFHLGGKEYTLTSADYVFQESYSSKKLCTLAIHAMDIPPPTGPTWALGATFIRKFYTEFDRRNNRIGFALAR

Biological target: T1, human renal renin (Homo sapiens, UniProt P00797)
T1 construct: human renal renin, free from acid proteolytic activity; from tissue
Assay: Inhibition of human renal renin in vitro; angiotensin I formed measured by radioimmunoassay
Type: biochemical

[1] = human renal renin free from acid proteolytic activity, renin substrate human angiotensinogen, 37° C., pH 6.0

Q: How did the IC50 [1] turn out when `CCOC(=O)N[C@@H](Cc1ccccc1)C(=O)N[C@@H](Cc1c[nH]cn1)C(=O)N[C@@H](CC1CCCCC1)[C@@H](O)[C@@H](O)CC(C)C` [Example 29, Ethoxycarbonyl-Phe-His Amide of 2(S)-Amino-1-cyclohexyl-3(R),4(S)-dihydroxy-6-ethylheptane] was run?
A: 0.6 nM

Q: For `CCCCN[C@@H](Cc1ccc(OC)cc1)C(=O)N[C@@H](Cc1c[nH]cn1)C(=O)N[C@@H](CC1CCCCC1)[C@@H](O)[C@@H](O)CC(C)C` [Example 54, (N-Butyl, 4-OCH3)Phe-His Amide of 2(S)-Amino-1-cyclohexyl-3(R),4(S)-dihydroxy-6-methylheptane], which IC50 is on record?
A: 0.95 nM

Q: How did the IC50 turn out when `CC(C)C[C@H](O)[C@H](O)[C@H](CC1CCCCC1)NC(=O)[C@H](Cc1cc[nH]n1)NC(=O)[C@H](Cc1ccccc1)NC(=O)OC(C)(C)C` [Example 35, Boc-Phe-PAla Amide of 2(S)-Amino-1-cyclohexyl-3(R),4(S)-dihydroxy-6-methylheptane] was run?
A: 1 nM

Q: With `CC(C)C[C@H](O)[C@H](O)[C@H](CC1CCCCC1)NC(=O)[C@H](Cc1c[nH]cn1)NC(=O)[C@H](Cc1ccccc1)NC(=O)NC(C)(C)C` [Example 32, Tbac-Phe-His Amide of 2(S)-Amino-l-cyclohexyl-3(R),4(S)-dihydroxy-6-methylheptane] as the compound, how does the IC50 [1] read?
A: 2 nM

Q: With `CC(C)C[C@H](O)[C@H](O)[C@H](CC1CCCCC1)NC(=O)[C@H](Cc1c[nH]cn1)NC(=O)[C@@H](O)Cc1ccccc1` [Example 25, Pl-His Amide of 2(S)-Amino-l-cyclohexyl-3(R),4(S)-dihydroxy-6-methylheptane] as the compound, how does the IC50 read?
A: 20 nM

Q: For `COc1ccc(C[C@H](NC(=O)N2CCOCC2)C(=O)N[C@@H](Cc2cnc[nH]2)C(=O)N[C@@H](CC2CCCCC2)[C@@H](O)[C@@H](O)CC(C)C)cc1` [Example 127, [(4-Morpholinyl)carbonyl]-(4-OCH3)Phe-His Amide of 2(S) -Amino-l-cyclohexyl-3(R),4(S)-dihydroxy-6-methylheptane], which IC50 is on record?
A: 0.75 nM

Q: How did the IC50 turn out when `CC(C)C[C@H](NC(=O)[C@H](Cc1ccccc1)NC(=O)OCCCO)C(=O)N[C@@H](CC1CCCCC1)[C@@H](O)[C@@H](O)CC(C)C` [Example 91, 3-Hydroxypropyloxycarbonyl-Phe-Leu Amide of 2(S)-Amino-1-cyclohexyl-3(R),4(S)-dihydroxy-6-methylheptane] was run?
A: 0.3 nM

Q: `CC(C)C[C@H](O)[C@H](O)[C@H](CC1CCCCC1)NC(=O)[C@H](Cc1c[nH]cn1)NC(=O)[C@H](Cc1ccccc1)NC(=O)COCc1ccccc1` [Example 102, Benzyloxyacetyl-Phe-His Amide of 2(S)-Amino-l-cyclohexyl-3(R),4(S)-dihydroxy-6-methylheptane] was tested. Which IC50 did it give?
A: 0.6 nM
